Source: PubChem BioAssay AID2540 (Sanford-Burnham Center for Chemical Genomics, 2010)
This is a selection; strong and weak results do not stand in their true shares. Active and inactive are the calls of the source. No stated cut-off is given here; in the data, active means inhibition above about 50%; inactive means the rest.

Amino acid sequences for entries named in this document (tags omitted).
UniProt Q96LD8, whole entry: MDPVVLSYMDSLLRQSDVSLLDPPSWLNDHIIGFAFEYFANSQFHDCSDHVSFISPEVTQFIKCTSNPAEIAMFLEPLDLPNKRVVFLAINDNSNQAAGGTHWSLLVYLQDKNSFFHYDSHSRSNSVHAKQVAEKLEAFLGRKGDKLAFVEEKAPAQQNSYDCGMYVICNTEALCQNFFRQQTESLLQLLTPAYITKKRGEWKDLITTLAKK

molecular target: Sentrin-specific protease 8 (Homo sapiens) (UniProt Q96LD8); test: blockers of human SENP8 peptidase activity – biochemical, luminescence, primary screen (AID 2540); details: purified SENP8, Z-RLRGG-aminoluciferin cleavage, at 10 µM, stronger effect = higher value

Row | Compound | inhibition
1 | CCC(=O)N(c1ccccc1)C1(COC)CCN(CCn2nnn(CC)c2=O)CC1 | inactive: -3.5%
2 | CCC(=O)N(c1ccccc1)C1(COC)CCN(CCc2cccs2)CC1 | inactive: -8.54%
